What is called inhibition is the change of the read-out against control, counted positive when it falls.

The text below walks through data of PubChem BioAssay AID1845 (The Scripps Research Institute Molecular Screening Center, 2009).

Only a part is listed here, and it is no random draw. The source made the active and inactive calls. Rule as the data show it: active = inhibition above about 37%; inactive = the rest.

A short description of this assay: DNA intercalator displacement agents – biochemical, FID fluorescence, artefact control for HCV NS3 helicase inhibitor project, primary screen (AID 1845).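 Also: 0% = vehicle and 100% = reference compound; higher means more ethidium bromide displaced from hairpin DNA.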 The following applies: DNA fluorescent intercalator displacement, at 7.9 µM, active compounds read high.
Turning to `CP(=O)(Oc1ccccc1)N1CCOC1=O` (stereo not drawn), the inhibition was inactive: 2.17%.

`O=C(OCCCN1CCCC1)C(O)(c1ccccc1)C1CCCCC1` (stereo not drawn): the inhibition was inactive: 15%.

Regarding `COc1ccccc1OP(C)(=O)Nc1c(C)n(C)n(-c2ccccc2)c1=O` (stereo not drawn), the inhibition is inactive: -17.4%.

As to `COc1ccc(OP(C)(=O)Nc2ccc(Br)cc2)cc1` (stereo not drawn), the inhibition was inactive: -18.6%.

`CCN(CC)CC(O)COC(=O)C(O)(c1ccccc1)C1CCCCC1` (stereo not drawn): the inhibition was inactive: 11.6%.

In the case of `CN(C)C(=O)c1c([N+](=O)[O-])cc([N+](=O)[O-])cc1[N+](=O)[O-]`, the inhibition is inactive: -1.24%.

Regarding `CP(=O)(Nc1ccc(Cl)cc1)Oc1ccc(F)cc1` (stereo not drawn), the inhibition is inactive: -9.45%.

With `COc1ccccc1OP(C)(=O)Nc1ccccc1Br` (stereo not drawn), the inhibition was inactive: 4.1%.

In the case of `CC(C)(C)c1ccc(OP(C)(=O)O)cc1`, the inhibition was inactive: -2.37%.

In the case of `CN(C)CCOC(=O)C(O)(c1ccccc1)C1CCCC1` (stereo not drawn), the inhibition is inactive: 9.91%.

With `COc1ccc(OP(C)(=O)Nc2ccccn2)cc1` (stereo not drawn), the inhibition is inactive: -0.64%.

Consider `COc1ccccc1OP(C)(=O)Nc1ccc(Br)cc1` (stereo not drawn), for which the inhibition is inactive: -10.1%.

Regarding `CCc1ccc(OP(C)(=O)O)cc1`, the inhibition was inactive: 1.15%.

As for `COc1ccccc1OP(C)(=O)Nc1ccc(C)cc1C` (stereo not drawn), the inhibition is inactive: -16.8%.

Turning to `CP(=O)(Nc1ccccn1)Oc1ccccc1` (stereo not drawn), the inhibition is inactive: 2.34%.

Take `Cc1c(NP(C)(=O)Oc2ccc(C(C)C)cc2)c(=O)n(-c2ccccc2)n1C` (stereo not drawn): the inhibition is inactive: -30.5%.

For the molecule `O=[N+]([O-])c1cc([N+](=O)[O-])c(Nc2ccccn2)c([N+](=O)[O-])c1`, the inhibition is inactive: 10.8%.

Turning to `COc1ccc(OP(C)(=O)Nc2ccccc2Br)cc1` (stereo not drawn), the inhibition is inactive: -10.8%.

Consider `COc1ccccc1OP(C)(=O)Nc1ccc(C)c(C)c1` (stereo not drawn), for which the inhibition is inactive: -13.7%.

On to `Cc1cc(C)cc(OP(C)(=O)Nc2cccc(C(F)(F)F)c2)c1` (stereo not drawn), for which the inhibition is inactive: -20.9%.

As for `CP(=O)(Nc1ccc(Cl)cc1Cl)Oc1ccccc1` (stereo not drawn), the inhibition was inactive: -8.83%.

Turning to `CP(=O)(OCCOc1ccccc1)OCCOc1ccccc1`, the inhibition was inactive: -28.1%.

Regarding `Cc1nc2ccc3ccccc3c2o1.O=[N+]([O-])c1cc([N+](=O)[O-])c(O)c([N+](=O)[O-])c1`, the inhibition is inactive: 10.4%.
